In patent US8415384B2, “Reducing myocardial reperfusion injury by the combination therapy of protein kinase A activation and B1-adrenergic receptor blockade” (The Board of Regents of the University of Texas System, priority 2008, dated 2013):

Legend:
[1] = test system: rat myocardial ischemia-reperfusion model; test: rat myocardial ischemia-reperfusion model (30-min coronary occlusion, 4-hr reperfusion), infarct size; type: in vivo; conditions: CGRP or terbutaline alone, late ischemia-early reperfusion
Source text: N=6 rats/group. NS: not significant; **: p<0.01. […] Yellow zone within the red is the infarcted area. Red zone is the area-at-risk supplied by the occluded left anterior descending coronary artery. Blue zone is non-risk zone supplied by no-occluded right and circumflex coronary arteries. Infarct size is normalized as the ration of yellow-area/red-area. Acute infarction-reperfusion model consists of 30-minute occlusion of the left anterior descending coronary artery followed by four-hour reperfusion. Infarct-size was quantified at the end of four-hour reperfusion. N=6 rats/group. Inventors used rat MI model (30-min ischemia and 4 h reperfusion). […] The effect of combination therapy on myocyte protection was further assessed in a simulated ischemia-reperfusion model of isolated rat ventricular myocytes (2-hr ischemia and 1-hr reperfusion). […] The mechanisms underlying combination therapy were determined by assessing myocardial PKA and PKC activity in normal rats. […] (FIG. 1) In comparison, PKC activity (assessed by PKC translocation) was unchanged in the first 5-min of the drug infusion. […] Arterial blood pressure and heart rate will be monitored continuously throughout the experiments. […] The areas of ischemia and necrosis in each slice are determined by planimetry, converted into percentages of the whole for each slice, and multiplied by the weight of the slice.

[2] = test system: isolated rat ventricular myocytes; test: simulated ischemia-reperfusion of isolated rat ventricular myocytes (2-hr hypoxia, 1-hr re-oxygenation), myocyte death; type: cell-based; conditions: CGRP or terbutaline alone
Source text: FIG. 4 Thirty minutes after the onset of ischemia, administration of milrinone (4.7 μmol/L) to ventricular myocytes reduces myocute death by 11% compared to saline control. The milrinone-induced myocyte protection is abolished in those cells pretreated with the PKA inhibitor Rp-CAMP (100 μmol/L). In vitro myocyte ischemia/reperfusion study consists of 2-hour hypoxia followed by 1-hour re-oxygenation. Hypoxia is created by layering mineral oil over the cells. Re-oxygenation is made by removal of the oil. Myocyte death is quantified at the end of 1-hour reperfusion. (Huang, 2007b). **: p<0.01.
Inventors used rat MI model (30-min ischemia and 4 h reperfusion). Pre-ischemic infusion (10-min) of the β2-AR blocker ICI-118551 (100 μg/kg/min), CGRP-receptor blocker CGRP8-37 (3 ng/kg/min), or their combination to the rats increased IS by 44%, 36%, and 72%, respectively (p<0.01, n=8/group). […] The effect of combination therapy on myocyte protection was further assessed in a simulated ischemia-reperfusion model of isolated rat ventricular myocytes (2-hr ischemia and 1-hr reperfusion). […] The mechanisms underlying combination therapy were determined by assessing myocardial PKA and PKC activity in normal rats. […] (FIG. 1) In comparison, PKC activity (assessed by PKC translocation) was unchanged in the first 5-min of the drug infusion. […]

PKA = test: myocardial PKA activity after IV infusion in normal rats; type: in vivo, rat; conditions: 10-min tail vein infusion, peaked at 5-min post-infusion, ventricular tissue
Protocol: Saline, terbutaline, CGRP or the combination (T+CGRP) was infused for 10-min via rat tail vein. One or 5 min after infusion, the ventricular tissues were harvested for PKA assay (Huang et al., 2007a). T: terbutaline. **: p<0.01, *: p<0.05.
Inventors used rat MI model (30-min ischemia and 4 h reperfusion). Pre-ischemic infusion (10-min) of the β2-AR blocker ICI-118551 (100 μg/kg/min), CGRP-receptor blocker CGRP8-37 (3 ng/kg/min), or their combination to the rats increased IS by 44%, 36%, and 72%, respectively (p<0.01, n=8/group). The β2-AR agonist terbutaline (100 μg/kg/min) and CGRP (3 ng/kg/min) which were co-infused from the last 5-min of ischemia to the first 5-min of reperfusion reduced IS by 74% (p<0.01, n=4/group). […] The effect of combination therapy on myocyte protection was further assessed in a simulated ischemia-reperfusion model of isolated rat ventricular myocytes (2-hr ischemia and 1-hr reperfusion). Compared with saline control, the application of CGRP (1 nmol/L)+terbutaline (100 nmol/L) at 30- and 60-min after ischemia reduced cell death by 11% and 9% (p<0.01) respectively. […] The mechanisms underlying combination therapy were determined by assessing myocardial PKA and PKC activity in normal rats. […] (FIG. 1) In comparison, PKC activity (assessed by PKC translocation) was unchanged in the first 5-min of the drug infusion.

Q: Which “effect on infarct size (IS) of single agent (in words)” value [1] does the source give for “calcitonin gene-related peptide (ACDTATCVTHRLAGLLSRSGGVVKNNFVPTNVGSKAF; Calcitonin gene-related peptide 1; UniProt P06881 83-119, looked up) [CGRP]” here?
A: did not reduce IS

Q: What about the “myocyte survival benefit of single agent (in words)” value [2] of the same substance?
A: no myocyte survival benefit

Q: What about the “increase of PKA activity” value (PKA) of the same substance?
A: 10%
